This passage reports activity change, negative = inhibition results from PubChem BioAssay AID2147 (National Center for Advancing Translational Sciences (NCATS), 2009).

Sequences of proteins named here, by UniProt entry; tags and fusion partners are left off. Residues count along the entry.
UniProt B2RXH2, 1-337 limits assumed: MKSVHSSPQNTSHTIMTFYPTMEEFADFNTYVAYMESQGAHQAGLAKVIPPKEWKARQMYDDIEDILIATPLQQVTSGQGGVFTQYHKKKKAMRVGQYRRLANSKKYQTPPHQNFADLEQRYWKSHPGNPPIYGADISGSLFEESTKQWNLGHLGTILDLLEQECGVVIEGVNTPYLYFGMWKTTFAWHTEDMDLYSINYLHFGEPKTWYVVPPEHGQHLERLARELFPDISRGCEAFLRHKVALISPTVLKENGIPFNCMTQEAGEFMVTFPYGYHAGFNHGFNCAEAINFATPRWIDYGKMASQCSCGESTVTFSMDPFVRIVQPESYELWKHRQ

The entries are a selection whose mix differs from that of the whole data set. Results filed as inconclusive are left out. Active and inactive are the calls of the source. Calls follow the shape of the dose curve; as a rule, active = well fitted inhibition curve with a large enough effect (not every such curve was filed as active); inconclusive = small, poorly fitted or top-dose-only effect, or another doubt; inactive = no such curve, though single readings can be large or run the other way.
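Also: 0% = wells with enzyme and -100% = buffer wells without enzyme; nearly all actives have a fitted effect of over 50% in size.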

The assay addresses Lysine-specific demethylase 4E (Homo sapiens) (UniProt B2RXH2). Nature of the assay: qHTS Assay for Inhibitors of Human Jumonji Domain Containing 2E (JMJD2E). The settings on record: JMJD2E catalytic domain, FDH-coupled NADH fluorescence (FDH is formaldehyde dehydrogenase); at 57.1 µM (top of the series). For orientation: qHTS replaces the single test concentration by a dilution series.
For `CCC(CO)(C(=O)OC1CN2CCC1CC2)c1ccccc1` (stereo not drawn), the activity change, negative = inhibition was inactive: 9.83%.

As to `COc1cc(OC)cc(C(=O)NCC2(N3CCOCC3)CCCCC2)c1`, the activity change, negative = inhibition was inactive: 14.4%.

With `CCCOc1ccc(C)cc1CN(CCCl)CCCl`, the activity change, negative = inhibition was inactive: -1.29%.

For the compound `CCOc1ncccc1C(=O)NCC1(N2CCOCC2)CCCCC1`, the activity change, negative = inhibition is inactive: -29.7%.

Take `CC(C)(C)OC(=O)N1CCC(Nc2ccccc2)CC1`: the activity change, negative = inhibition is inactive: 2.79%.

`CN(C)c1ccc(C(=O)NCC2(N3CCCCC3)CCCCC2)cc1`: the activity change, negative = inhibition is inactive: 7.13%.

For `c1ccc(CN2CCC(Nc3ccccc3)CC2)cc1`, the activity change, negative = inhibition is inactive: 2.11%.

As to `N#Cc1ccc(C(=O)NCC2(N3CCCCC3)CCCCC2)cc1`, the activity change, negative = inhibition is inactive: -1.6%.

Regarding `CCOC(=O)C(CC)C1=NC(C)(C)Cc2ccccc21.O=[N+]([O-])c1cc([N+](=O)[O-])c(O)c([N+](=O)[O-])c1` (stereo not drawn), the activity change, negative = inhibition is inactive: 5.1%.

Turning to `N/C(=N\O)c1c(N)no[n+]1[O-]`, the activity change, negative = inhibition is inactive: -0.173%.

With `O=C(O)c1cccc(Nc2c([N+](=O)[O-])cc([N+](=O)[O-])cc2[N+](=O)[O-])c1`, the activity change, negative = inhibition is inactive: -15.8%.

As to `COc1ccc(C(=O)NCC2(N3CCOCC3)CCCCC2)cc1OC`, the activity change, negative = inhibition is inactive: -1.04%.

As for `O=C(OC1CN2CCC1CC2)c1ccc([N+](=O)[O-])cc1` (stereo not drawn), the activity change, negative = inhibition is inactive: 6.09%.

Turning to `COc1ccc(CN(CCCl)CCCl)cc1Cl`, the activity change, negative = inhibition was inactive: -3.61%.

Consider `CC(C)c1ccc(NC2CCN(C(=O)OC(C)(C)C)CC2)cc1`, for which the activity change, negative = inhibition was inactive: -13.6%.

Consider `CN1CCN(CCOC(=O)C(O)(c2ccccc2)c2ccccc2)CC1`, for which the activity change, negative = inhibition is inactive: 3.03%.

As to `COc1ccc(NC2CCN(C(=O)OC(C)(C)C)CC2)cc1`, the activity change, negative = inhibition is inactive: -14.6%.

Regarding `O=C(NCC1(N2CCOCC2)CCCCC1)c1cc(=O)[nH]c2ccccc12`, the activity change, negative = inhibition was inactive: -2.74%.

Turning to `O=C(NCC1(N2CCCCC2)CCCCC1)c1cccc([N+](=O)[O-])c1`, the activity change, negative = inhibition is inactive: 0.803%.

On to `N#CC1(Nc2ccccc2)CCN(CCc2ccccc2)CC1`, for which the activity change, negative = inhibition was inactive: 4.38%.

Take `Cc1ccc(OCC(C)C)c(CN(CCCl)CCCl)c1`: the activity change, negative = inhibition was inactive: -1.95%.

In the case of `CCOc1ccc(C)cc1CN(CCCl)CCCl`, the activity change, negative = inhibition is inactive: -2.82%.

As to `COc1ccc(NC2CCN(CCc3ccccc3)CC2)c(OC)c1`, the activity change, negative = inhibition is inactive: -7.72%.

Consider `O=C(NCC1(N2CCOCC2)CCCCC1)c1cc2ccccc2o1`, for which the activity change, negative = inhibition is inactive: -3.81%.

Turning to `CCOC(=O)N1CCC(Nc2ccc(OC)cc2)CC1`, the activity change, negative = inhibition was inactive: -13.6%.

As to `O=C(OC1CN2CCC1CC2)C1c2ccccc2Oc2ccccc21` (stereo not drawn), the activity change, negative = inhibition was inactive: 3.89%.

As for `N#CC1(Nc2ccccc2)CCN(Cc2ccccc2)CC1`, the activity change, negative = inhibition is inactive: 1.4%.

For `COc1ccc(C(=O)NCC2(N3CCCCC3)CCCCC2)c(OC)c1OC`, the activity change, negative = inhibition is inactive: -6.8%.
